Structures are written as SMILES. This is a selection; strong and weak results do not stand in their true shares. Some of these compounds have results that are not shown, active ones among them. Activity calls are given as the source filed them.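 How the source made its calls: active means inhibition above the mean of all tested compounds plus 3 SD, set per campaign (cut at about 14% in these data); inactive means the rest.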

Sequences of proteins named here, by UniProt entry; tags and fusion partners are left off.
UniProt O75608, whole entry: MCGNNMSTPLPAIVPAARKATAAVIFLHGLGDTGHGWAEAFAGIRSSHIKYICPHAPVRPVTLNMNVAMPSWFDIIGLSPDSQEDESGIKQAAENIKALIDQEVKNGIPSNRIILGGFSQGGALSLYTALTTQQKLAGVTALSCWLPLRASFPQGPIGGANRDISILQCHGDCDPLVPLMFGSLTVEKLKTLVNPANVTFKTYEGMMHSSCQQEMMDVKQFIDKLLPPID

The assay deals with Acyl-protein thioesterase 1 (Homo sapiens) (UniProt O75608). As to the kind of experiment: LYPLA1 inhibitors, primary screen, counter-screen for PME1 inhibitor project, biochemical, fluorescence polarization, FP-Rh probe ABPP (AID 2174).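 Further: inhibitors block serine hydrolase probe labeling of LYPLA1 so polarization falls; 0% = enzyme with DMSO and 100% = wells lacking LYPLA1.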 The settings on record: recombinant LYPLA1, FP-Rh probe fluorescence polarization; at 5.9 µM; hits give high values. (A counterscreen serves to expose hits that act by an unwanted route or on another target.)
For orientation: inhibition means the drop in the measured response relative to a control, in per cent. Turning to `O=C(OC1CN2CCC1CC2)C(CO)(c1ccccc1)c1ccccc1` (centres undefined), the inhibition was inactive: -2.91%.

In the case of `COc1ccc(Br)c(C(=O)NCC2(N3CCCCC3)CCCCC2)c1`, the inhibition was inactive: 1.95%.

As for `CN(C)c1cccc(C(=O)NCC2(N(C)C)CCCCC2)c1`, the inhibition was inactive: 0.37%.

Turning to `CC(C)Oc1ccc(C(=O)NCC2(N(C)C)CCCCC2)cc1`, the inhibition was inactive: -1.7%.

As to `CN(C)C1(CNC(=O)c2ccc(Br)cc2)CCCCC1`, the inhibition was inactive: 2.37%.

For the compound `COc1cc(C(=O)NCC2(N(C)C)CCCCC2)c([N+](=O)[O-])cc1OC`, the inhibition was inactive: -1.98%.

As to `COc1ccc(Cl)cc1C(=O)NCC1(N(C)C)CCCCC1`, the inhibition was inactive: 0.65%.

In the case of `COc1cccc(C(=O)NCC2(N3CCCCC3)CCCCC2)c1`, the inhibition is inactive: 0.23%.

`O=C(NCC1(N2CCCCC2)CCCCC1)c1cccc(Cl)c1`: the inhibition was inactive: -2.55%.

Turning to `CN(C)C1CCCC1OC(=O)C(O)(c1ccccc1)c1ccccc1` (centres undefined), the inhibition is inactive: -1.8%.

On to `CN(C)c1ccc(C(=O)NCC2(N(C)C)CCCCC2)cc1`, for which the inhibition was inactive: -0.85%.

On to `Cc1ccccc1C(=O)NCC1(N2CCCCC2)CCCCC1`, for which the inhibition is inactive: -4.93%.

With `O=C(NCC1(N2CCCCC2)CCCCC1)c1cc(F)c(F)cc1Cl`, the inhibition was inactive: 0.29%.

In the case of `C=CCN1CCN(CCOC(=O)C(O)(c2ccccc2)c2ccccc2)CC1`, the inhibition was inactive: 0.22%.

For `O=C(NCC1(N2CCCCC2)CCCCC1)c1cccc(Br)c1`, the inhibition is inactive: 0.99%.

Consider `Cc1cc(C(=O)NCC2(N3CCCCC3)CCCCC2)ccc1[N+](=O)[O-]`, for which the inhibition was inactive: 2.48%.

For the compound `CCN1CCCC(OC(=O)C2(O)c3ccccc3C=Cc3ccccc32)C1` (centres undefined), the inhibition is inactive: -0.99%.

`COc1ccc(C(=O)NCC2(N(C)C)CCCCC2)cc1`: the inhibition was inactive: -1.03%.

On to `O=C(NCC1(N2CCCCC2)CCCCC1)c1cc([N+](=O)[O-])ccc1Cl`, for which the inhibition is inactive: 5.4%.

In the case of `CN1[C@@H]2CC[C@H]1CC(OC(=O)C(O)(c1ccccc1)c1ccccc1)C2` (some centres undefined), the inhibition is inactive: -0.09%.

For the compound `CC(C)N1C(=O)CC2(CCN(CCOC(=O)C(O)(c3ccccc3)c3ccccc3)CC2)C1=O`, the inhibition is inactive: 1.21%.

Regarding `COc1cc(SC)ccc1C(=O)NCC1(N(C)C)CCCCC1`, the inhibition is inactive: 0.64%.

`CCN(CC)CC(C)C(C)OC(=O)C(O)(c1ccccc1)c1ccccc1` (centres undefined): the inhibition is inactive: 4.21%.

For the compound `Cc1ccc(C(=O)NCC2(N3CCCCC3)CCCCC2)cc1`, the inhibition was inactive: -1.25%.

The values above are taken from PubChem BioAssay AID2174 (The Scripps Research Institute Molecular Screening Center, 2009).
